{
  "sequences": {"note": "Sequences of proteins named here, by UniProt entry; tags and fusion partners are left off.", "UniProt Q99720, whole entry, looked up": "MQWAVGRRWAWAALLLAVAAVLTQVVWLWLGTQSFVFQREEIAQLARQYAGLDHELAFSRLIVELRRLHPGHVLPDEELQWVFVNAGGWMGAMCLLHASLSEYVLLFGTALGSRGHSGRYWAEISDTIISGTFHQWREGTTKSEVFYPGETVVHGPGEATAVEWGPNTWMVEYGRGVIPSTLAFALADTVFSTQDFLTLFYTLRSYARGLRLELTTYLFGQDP"},
  "source": "BindingDB's records for 7990111",
  "about": "(1995)",
  "target": "Sigma non-opioid intracellular receptor 1 (Homo sapiens, UniProt Q99720)",
  "note": "pIC50: −log10 of the molar value.",
  "data": [
    {"smiles": "O=C(CCCN1CCC2(CC1)C(=O)NCN2c1ccccc1)c1ccc(F)cc1", "values": [
      {"measurement": "pIC50", "result": 6.02}
    ]}
  ]
}
